Experimental data published in PMC7703681 (Journal of medicinal chemistry, 2020).

By UniProt entry, the sequences of proteins in these tests, tags left out. Where a name states a change or a piece, a line headed by the entry shows the natural chain unless it says otherwise.
UniProt P10275: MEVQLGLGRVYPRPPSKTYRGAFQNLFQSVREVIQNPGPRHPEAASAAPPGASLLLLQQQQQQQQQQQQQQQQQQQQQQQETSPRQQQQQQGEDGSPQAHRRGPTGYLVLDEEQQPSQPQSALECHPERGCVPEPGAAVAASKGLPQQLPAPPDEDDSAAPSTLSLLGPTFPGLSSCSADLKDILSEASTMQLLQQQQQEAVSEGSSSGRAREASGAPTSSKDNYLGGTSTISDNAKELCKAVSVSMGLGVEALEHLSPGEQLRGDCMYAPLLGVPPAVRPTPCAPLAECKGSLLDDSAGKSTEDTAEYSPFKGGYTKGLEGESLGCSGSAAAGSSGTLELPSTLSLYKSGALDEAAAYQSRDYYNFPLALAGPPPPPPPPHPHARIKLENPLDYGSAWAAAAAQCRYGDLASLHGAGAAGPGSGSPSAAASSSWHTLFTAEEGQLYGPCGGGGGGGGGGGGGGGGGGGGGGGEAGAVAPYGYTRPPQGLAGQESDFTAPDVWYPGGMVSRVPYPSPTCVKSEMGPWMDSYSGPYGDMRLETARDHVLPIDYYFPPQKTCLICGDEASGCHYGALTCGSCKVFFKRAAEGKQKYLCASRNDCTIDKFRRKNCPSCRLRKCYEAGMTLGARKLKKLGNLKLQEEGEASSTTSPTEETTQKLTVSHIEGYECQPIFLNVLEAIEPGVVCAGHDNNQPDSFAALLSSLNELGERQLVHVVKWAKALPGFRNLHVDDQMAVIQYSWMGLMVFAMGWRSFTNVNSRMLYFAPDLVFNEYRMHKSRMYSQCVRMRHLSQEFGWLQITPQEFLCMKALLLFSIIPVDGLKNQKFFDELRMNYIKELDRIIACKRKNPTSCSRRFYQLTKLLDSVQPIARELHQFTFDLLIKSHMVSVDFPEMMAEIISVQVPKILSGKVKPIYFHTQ

Molecular target: full-length wtAR (Homo sapiens, UniProt P10275)

`C[C@](O)(CNC(=O)c1cn[nH]c1)C(=O)Nc1ccc(C#N)c(C(F)(F)F)c1` [29f, (S)-N-(3-((4-Cyano-3-(trifluoromethyl)phenyl)amino)-2-hydroxy-2-methyl-3-oxopropyl)-1H-pyrazole-4-carboxamide] was tested, and the “transactivation IC50” value was “agonist”.
